The results in this text go back to patent US9908899B2 (BIOMARIN PHARMACEUTICAL INC., priority 2011, dated 2018).

Chains of the proteins cited; added tags and fusions are not shown.
UniProt Q92769, whole entry: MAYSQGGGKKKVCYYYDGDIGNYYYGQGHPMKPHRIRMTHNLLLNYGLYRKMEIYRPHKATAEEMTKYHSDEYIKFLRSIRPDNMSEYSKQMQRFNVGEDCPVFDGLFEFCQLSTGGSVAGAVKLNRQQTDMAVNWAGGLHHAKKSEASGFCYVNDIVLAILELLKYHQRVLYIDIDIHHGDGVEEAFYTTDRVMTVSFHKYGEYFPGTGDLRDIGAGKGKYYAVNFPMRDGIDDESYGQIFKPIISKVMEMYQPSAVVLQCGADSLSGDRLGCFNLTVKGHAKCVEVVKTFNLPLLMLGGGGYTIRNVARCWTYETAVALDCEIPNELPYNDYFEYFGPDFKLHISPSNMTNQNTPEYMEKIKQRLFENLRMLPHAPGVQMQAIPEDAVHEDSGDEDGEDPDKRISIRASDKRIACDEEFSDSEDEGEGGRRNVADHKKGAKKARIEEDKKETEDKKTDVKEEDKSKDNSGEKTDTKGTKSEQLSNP

In the experiment the target is HDAC2 (Homo sapiens (Human), UniProt Q92769). The experiment is described as follows: HDAC activity inhibition assay, HDAC2. Type of experiment: biochemical. Here is the method: The HDAC activity inhibition assay was performed as follows to determine the ability of a test compound to inhibit HDAC enzymatic activity. […] Following pre-incubation, Fluor-de-Lys™ substrate (Enzo Life Sciences, Plymouth Meeting, Pa., BML-KI104-0050) was added to a final concentration of 10 μM and plates were further incubated for 30 minutes at room temperature. […] IC50 values were calculated by using a sigmoidal dose-response (variable slope) equation in GraphPad Prism® 5 for Windows (GraphPad Software, La Jolla, Calif.).

Molecules are shown by their SMILES.

The molecule `Nc1ccccc1NC(=O)c1ccc(C=C2COC2)c(Cl)c1` [F11] gave an IC50 of 1000 to 5000 nM.

A word on the IC50: it is the midpoint of a concentration-inhibition curve. A low value points to greater potency.
